Tests used:
[1] = biological target: Carbonic anhydrase 13 (Mus musculus, UniProt Q9D6N1)
[2] = biological target: Carbonic anhydrase 9 (Homo sapiens, UniProt Q16790)

| Structure (SMILES) | Ki [1] | Ki [2] |
| --- | --- | --- |
| COc1cccc2cc(C(=O)O)c(=O)oc12 | 6.6 µM | – |
| O=c1ccc2ccccc2o1 [COUMARIN] | – | 9.1 µM |
